Measurements published in BindingDB's records for doi:10.1002/(SICI)1098-2396(199702)25:2 (University of Toronto, 1997).
Where a name gives a salt, the structure may show the parent alone.

The chains behind the UniProt entries cited, without tags or fusion partners.
UniProt P61169, whole entry: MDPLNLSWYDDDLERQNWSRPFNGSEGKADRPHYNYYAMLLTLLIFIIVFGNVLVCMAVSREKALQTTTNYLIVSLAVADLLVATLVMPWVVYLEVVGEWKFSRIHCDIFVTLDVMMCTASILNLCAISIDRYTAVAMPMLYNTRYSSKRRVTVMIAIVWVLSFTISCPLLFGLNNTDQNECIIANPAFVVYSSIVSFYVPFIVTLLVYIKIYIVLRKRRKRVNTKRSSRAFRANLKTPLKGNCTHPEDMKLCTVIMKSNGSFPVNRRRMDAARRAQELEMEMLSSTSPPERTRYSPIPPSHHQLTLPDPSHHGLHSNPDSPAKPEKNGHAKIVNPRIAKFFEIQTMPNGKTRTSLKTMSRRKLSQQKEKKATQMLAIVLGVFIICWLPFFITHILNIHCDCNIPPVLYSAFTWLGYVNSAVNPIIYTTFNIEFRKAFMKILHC

Molecular target: D(2) dopamine receptor (Rattus norvegicus, UniProt P61169)

Row | Compound | Ki
1 | NCCc1c[nH]c2ccc(O)cc12 [[3H]-5-HT] | > 10 µM
2 | CCN(CC)CCNC(=O)c1cc(Cl)c(N)cc1OC [4-amino-5-chloro-N-[2-(diethylamino)ethyl]-2-methoxy-benzamide;hydrochloride] | 0.035 µM
3 | CN1CCc2cccc3c2[C@H]1Cc1ccc(O)c(O)c1-3 [APOKYN] | 1.27 µM
